Data taken from article PMC8761874 (European Journal of Nuclear Medicine and Molecular Imaging, 2022).

Tested on: NSCLC patients (lung adenocarcinoma)
Assay type: in vivo, human

- SUVmax (Patient 1, bone metastasis, right femur): 7.75
- SUVmax (Patient 1, primary LUAC, right lung): 9.45
- SUVmax (Patient 2, primary LUAC, large tumor on the right lung): 18.56
Substance: ^18F-FDG

Where two headings read alike, the source gives them in different places.
